# Test results published in article PMC8292404, “Phase 1b/2 trial of tepotinib in sorafenib pretreated advanced hepatocellular carcinoma with MET overexpression” (British Journal of Cancer, 2021).
# “And” between values parts separate entries of the source, which are not always exact repeats. Equal entries are not always repeated.
# How the values were obtained:
# [1] = Phase 1b: pharmacokinetics at Cycle 1, Day 15; type: in vivo; conditions: HCC population Phase 1b versus first-in-human trial (ref 24)
# Description: (§1) Additional patients were enrolled at the RP2D.
# The primary endpoint in Phase 1b was incidence of dose-limiting toxicities (DLTs) during Cycle 1. Details of DLTs are defined in Supplementary Table 3. Pharmacokinetics (PK) endpoints, including Cmax, and area under the concentration–time curve over the dosing interval at steady state (AUCτ,ss), were evaluated at Cycle 1, Day 15 as a secondary endpoint in Phase 1b. Selected efficacy measures were evaluated as secondary endpoints in Phase 1b.
# [2] = test system: patients with sorafenib pretreated aHCC with MET overexpression; assay: Phase 2: adverse events (NCI CTCAE v4.0)
# Description: In both study phases, eligible patients were ≥18 years old with aHCC, Child–Pugh Class A liver function score, Eastern Cooperative Oncology Group performance status 0 or 1, and measurable disease defined by Response Evaluation Criteria In Solid Tumors (RECIST) v1.1. […] Exclusion criteria included any prior systemic anti-cancer treatment for aHCC (besides sorafenib) and presence of symptomatic or untreated brain metastases. Full inclusion and exclusion criteria are shown in Supplementary Table 1.
# as §1
# In Phase 2, the primary endpoint was progression-free survival (PFS) status after 12 weeks of treatment, as assessed by the investigator per RECIST v1.1. Secondary endpoints included TTP, time to symptomatic progression, objective response rate (ORR), disease control rate (DCR) (all investigator-assessed and per RECIST v1.1), PFS per modified RECIST v1.1 (investigator-assessed), OS and biological response (defined as a decrease in AFP >20%). As sensitivity analyses, PFS and TTP were also evaluated by independent review. Safety was assessed via reporting of adverse events (AEs), graded according to National Cancer Institute Common Terminology and Criteria for Adverse Events v4.0.
# Continuous variables, including PK data, were summarised using descriptive statistics; qualitative variables were summarised by means of counts and percentages.
# [3] = test system: aHCC with MET overexpression; set-up: method as in PMID 33972742; conditions: Asian patients, no prior systemic anti-cancer therapy; cited from earlier work
# [4] = test system: sorafenib pretreated aHCC with MET overexpression; assay: Phase 2: progression-free survival, response, TTP, OS, AFP response; type: in vivo, human
# Description: as §1
# In both phases, tumour assessments were performed per RECIST v1.1 and modified RECIST[29] v1.1 on Day 1 of every second cycle from Cycle 3 to 13, and Day 1 of every fourth cycle thereafter. Exploratory endpoints included biomarkers of MET pathway activity (including MET amplification status).
# For the Phase 2 primary endpoint, the null hypothesis that the 12-week progression-free rate is ≤15% (based on historical data)[23] was tested against a one-sided alternative hypothesis that the 12-week progression-free rate is 30%, using a binomial exact test with an α value of 0.05. A sample size of 48 patients was required to achieve a power of at least 80%.
# Tumour response (best overall response, ORR, DCR) and biological response were summarised, along with corresponding two-sided exact Clopper–Pearson 90% confidence intervals (CIs). Kaplan–Meier estimates of median PFS, TTP, time to symptomatic progression and OS are presented, along with 90% CIs (calculated using the two-sided exact Clopper–Pearson method). All statistical analyses were performed using SAS® Software version 9.4 (Statistical Analysis System, SAS-Institute, Cary, North Carolina, US).
# [5] = Phase 2, 49 patients, investigator-assessed
# [6] = Phase 2, eight patients with MET IHC 3+
# [7] = Phase 2, overall (n = 49), brackets 90% CI
# [8] = Phase 2, six patients positive for MET amplification
# [9] = investigator RECIST v1.1, Phase 2 500 mg/day (N = 49)
# [10] = investigator mRECIST v1.1, Phase 2 500 mg/day (N = 49)
smiles,measurement,setting,value
CN1CCC(COc2cnc(-c3cccc(Cn4nc(-c5cccc(C#N)c5)ccc4=O)c3)nc2)CC1 [tepotinib],"AUCτ,ss relative to first-in-human trial in advanced solid tumours",[1],47%
same,Cmax relative to first-in-human trial in advanced solid tumours,[1],52%
same,Grade ≥3 treatment-related increased lipase,[2]; Phase 2,6.1%
same,Grade ≥3 treatment-related peripheral oedema,[2]; Phase 2,6.1%
same,"ascites, AE of any cause","[2]; Phase 2, 500 mg QD",34.7%
same,"diarrhoea, AE of any cause","[2]; Phase 2, 500 mg QD",32.7%
same,"peripheral oedema, AE of any cause","[2]; Phase 2, 500 mg QD",65.3%
same,patients with Grade ≥3 AEs of any cause,"[2]; Phase 2, 500 mg QD, N = 49",57.1%
same,patients with Grade ≥3 treatment-related AEs,"[2]; Phase 2, 500 mg QD, N = 49",28.6%
same,patients with an AE of any cause,"[2]; Phase 2, 500 mg QD, N = 49",98.0%
same,patients with treatment-related AEs,"[2]; Phase 2, 500 mg QD, N = 49",83.7%
same,treatment-related Ascites,"[2]; Phase 2, Grade ≥3",2 (4.1) n (%)
same,treatment-related Asthenia,"[2]; Phase 2, Grade ≥3",0 n (%)
same,treatment-related Blood creatinine increased,"[2]; Phase 2, Grade ≥3",1 (2.0) n (%)
same,treatment-related Decreased appetite,"[2]; Phase 2, Grade ≥3",0 n (%)
same,treatment-related Diarrhoea,"[2]; Phase 2, Grade ≥3",0 n (%)
same,treatment-related Fatigue,"[2]; Phase 2, Grade ≥3",0 n (%)
same,treatment-related Hypoalbuminaemia,"[2]; Phase 2, Grade ≥3",0 n (%)
same,treatment-related Lipase increased,"[2]; Phase 2, Grade ≥3",3 (6.1) n (%)
same,treatment-related Nausea,"[2]; Phase 2, Grade ≥3",0 n (%)
same,treatment-related Peripheral oedema,"[2]; Phase 2, Grade ≥3",3 (6.1) n (%)
same,treatment-related Pruritus,"[2]; Phase 2, Grade ≥3",0 n (%)
same,treatment-related Vomiting,"[2]; Phase 2, Grade ≥3",0 n (%)
same,≥1 adverse event of any cause,"[2]; Phase 2, Grade ≥3",28 (57.1) n (%)
same,≥1 treatment-related adverse event,"[2]; Phase 2, Grade ≥3",14 (28.6) n (%)
same,AEs of any cause that led to death,"[2]; Phase 2, N = 49",16.3%
same,permanently discontinued treatment due to AEs of any cause,"[2]; Phase 2, N = 49",34.7%
same,permanently discontinued treatment due to treatment-related AEs,"[2]; Phase 2, N = 49",16.3%
same,treatment-related Ascites,"[2]; Phase 2, any grade",6 (12.2) n (%)
same,treatment-related Asthenia,"[2]; Phase 2, any grade",11 (22.4) n (%)
same,treatment-related Blood creatinine increased,"[2]; Phase 2, any grade",3 (6.1) n (%)
same,treatment-related Decreased appetite,"[2]; Phase 2, any grade",4 (8.2) n (%)
same,treatment-related Diarrhoea,"[2]; Phase 2, any grade",8 (16.3) n (%)
same,treatment-related Fatigue,"[2]; Phase 2, any grade",9 (18.4) n (%)
same,treatment-related Hypoalbuminaemia,"[2]; Phase 2, any grade",5 (10.2) n (%)
same,treatment-related Lipase increased,"[2]; Phase 2, any grade",3 (6.1) n (%)
same,treatment-related Nausea,"[2]; Phase 2, any grade",7 (14.3) n (%)
same,treatment-related Peripheral oedema,"[2]; Phase 2, any grade",19 (38.8) n (%)
same,treatment-related Pruritus,"[2]; Phase 2, any grade",3 (6.1) n (%)
same,treatment-related Vomiting,"[2]; Phase 2, any grade",4 (8.2) n (%)
same,treatment-related asthenia,"[2]; Phase 2, any grade",22.4%
same,treatment-related diarrhoea,"[2]; Phase 2, any grade",16.3%
same,treatment-related fatigue,"[2]; Phase 2, any grade",18.4%
same,treatment-related nausea,"[2]; Phase 2, any grade",14.3%
same,treatment-related peripheral oedema,"[2]; Phase 2, any grade",38.8%
same,≥1 adverse event of any cause,"[2]; Phase 2, any grade",48 (98.0) n (%)
same,≥1 treatment-related adverse event,"[2]; Phase 2, any grade",41 (83.7) n (%)
same,AE leading to death deemed by the investigator related to study treatment,"[2]; Phase 2, hypoglycaemic coma, patient with type 1 diabetes",one instance
same,time to progression (TTP) versus sorafenib,[3],significant increase
same,12-week PFS (patients progression-free at 12 weeks),"[4]; Phase 2, 500 mg QD, N = 49, investigator-assessed, RECIST v1.1, primary endpoint",63.3%
same,investigator-assessed ORR,"[4]; Phase 2, 4/49",8.2%
same,biological response (decrease in AFP concentration of >20%),"[4]; Phase 2, 14 of 45 patients with baseline and post-baseline AFP",31.1%
same,DCR,"[4]; Phase 2, 28/49",57.1%
same,patients who had died at the time of analysis,"[4]; Phase 2, 40 of 49",81.6%
same,PR,[4]; [5],6.1%
same,complete response (CR),[4]; [5],2.0%
same,CR,[4]; [6],12.5%
same,DCR,[4]; [6],62.5%
same,Median PFS by independent review committee,"[4]; Phase 2, overall",3.2 months
same,median TTP by independent review committee,"[4]; Phase 2, overall",4.2 months
same,"Median PFS, investigator-assessed",[4]; [7],3.4 months
same,Median investigator-assessed TTP,[4]; [7],4 months and 4.0 months
same,median OS,[4]; [7],5.6 months
same,CR,[4]; [8],16.7%
same,not evaluable,[4]; [8],16.7%
same,12-week PFS,"[4]; Phase 2, two patients with AFP missing",100%
same,Best overall response Not evaluable,[4]; [9],6 (12.2) n (%)
same,Best overall response PD,[4]; [9],15 (30.6) n (%)
same,Best overall response PR,[4]; [9],3 (6.1) n (%)
same,Best overall response SD,[4]; [9],24 (49.0) n (%)
same,Best overall response Non-CR/Non-PD,[4]; [10],7 (14.3) n (%)
same,Best overall response Not evaluable,[4]; [10],5 (10.2) n (%)
same,Best overall response PD,[4]; [10],13 (26.5) n (%)
same,Best overall response PR,[4]; [10],4 (8.2) n (%)
same,Best overall response SD,[4]; [10],19 (38.8) n (%)
